One experiment deals with human IL-12 (human) (UniProt P29459). The experiment in a line: ELISA; direct ELISA-based receptor binding assay (as in ref. 50); OD450nm plotted against tIL12rβ1/Fc concentration; EC50 fitted with a single-site binding model. For orientation: An ELISA detects its analyte on a solid surface through an enzyme-linked reagent.
A further experiment concerns the target human IL-23 (human) (UniProt Q9NPF7). Described as above.

One may read the EC50 as the concentration that produces a half-maximal response. Low values mean greater potency, high ones weaker potency. In the experiment with human IL-12 (human), “human truncated IL12rβ1-Fc fusion protein (from UniProt P42701-1 24-236)” gave an EC50 of 30.2 nM. In the experiment with human IL-23 (human), “human truncated IL12rβ1-Fc fusion protein (from UniProt P42701-1 24-236) (Fc fusion; other documents disagree on this pair)” showed an EC50 of 32.7 nM.

The values are drawn from paper PMC4745676.
